For one experiment, the species on record is Cavia porcellus. Description: Tested for naloxone pA2 activity in guinea pig ileum. Format: functional.
Experiment [1] addresses Kappa-type opioid receptor (Cavia porcellus, UniProt P41144). Description: Tested for inhibitory effect on binding of [3H]bremazocine to opioid receptor kappa in guinea pig cerebellum membranes.
A further experiment addresses Mu-type opioid receptor (Cavia porcellus, UniProt P97266). Description: Tested for inhibitory effect on binding of [3H]DAMGO to opioid receptor mu in guinea pig cerebellum membranes.

The chains behind the UniProt entries cited, without tags or fusion partners. Where a name states a change or a piece, a line headed by the entry shows the natural chain unless it says otherwise.
UniProt P41144: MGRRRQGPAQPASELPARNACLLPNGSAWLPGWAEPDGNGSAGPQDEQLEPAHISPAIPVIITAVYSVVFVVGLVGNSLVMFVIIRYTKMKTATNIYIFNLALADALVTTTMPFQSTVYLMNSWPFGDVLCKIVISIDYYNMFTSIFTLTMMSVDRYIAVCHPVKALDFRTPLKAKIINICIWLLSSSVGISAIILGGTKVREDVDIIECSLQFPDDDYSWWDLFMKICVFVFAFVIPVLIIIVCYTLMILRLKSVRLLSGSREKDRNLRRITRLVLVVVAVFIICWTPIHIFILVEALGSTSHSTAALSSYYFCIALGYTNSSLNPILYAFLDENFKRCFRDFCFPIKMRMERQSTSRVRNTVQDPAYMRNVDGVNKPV
UniProt P97266, whole entry, looked up: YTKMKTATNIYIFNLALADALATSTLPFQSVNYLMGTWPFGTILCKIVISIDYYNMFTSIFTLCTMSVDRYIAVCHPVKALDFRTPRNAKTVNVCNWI

A word on the Ki: it is a dissociation constant, usually derived from enzyme kinetics or from competition with a known ligand. Higher therefore signals weaker binding.

In the case of `CN(C(=O)Cc1ccc(Cl)c(Cl)c1)C1CCCCC1N1CCCC1` (stereo not given), in the experiment filed under Cavia porcellus, the Activity was determined as 7. Besides, the inhibition constant Ki in experiment [1] came out at 1.16 nM; at Mu-type opioid receptor, 206 nM.

Take `CN(C(=O)Cc1ccccc1)[C@H]1CC[C@@]2(CCCO2)C[C@@H]1N1CCCC1`: the inhibition constant Ki in experiment [1] came out at 1.06 nM; at Mu-type opioid receptor, 551 nM.

The values are drawn from ChEMBL document CHEMBL1126112 (J Med Chem, 1992).
